Results as given in patent US20040176573A1.

Molecular target: HLA-B35 (human)

EBNA3A458-466 (peptide)
C50: 0.8 µM
